One may read the pIC50 as the IC50 on a negative log10 scale, so that one unit is a factor of ten. A high value points to a small IC50.

IC50 data for 1 compound are collected here from ChEMBL document CHEMBL2321726, “Identification of selective inhibitors for human neuraminidase isoenzymes using C4,C7-modified 2-deoxy-2,3-didehydro-N-acetylneuraminic acid (DANA) analogues” (J Med Chem, 2013).

pIC50: −log10 of the molar value.

The assay addresses T1, Sialidase-4 (Homo sapiens, UniProt Q8WWR8).
T1 sequence (Q8WWR8 whole entry): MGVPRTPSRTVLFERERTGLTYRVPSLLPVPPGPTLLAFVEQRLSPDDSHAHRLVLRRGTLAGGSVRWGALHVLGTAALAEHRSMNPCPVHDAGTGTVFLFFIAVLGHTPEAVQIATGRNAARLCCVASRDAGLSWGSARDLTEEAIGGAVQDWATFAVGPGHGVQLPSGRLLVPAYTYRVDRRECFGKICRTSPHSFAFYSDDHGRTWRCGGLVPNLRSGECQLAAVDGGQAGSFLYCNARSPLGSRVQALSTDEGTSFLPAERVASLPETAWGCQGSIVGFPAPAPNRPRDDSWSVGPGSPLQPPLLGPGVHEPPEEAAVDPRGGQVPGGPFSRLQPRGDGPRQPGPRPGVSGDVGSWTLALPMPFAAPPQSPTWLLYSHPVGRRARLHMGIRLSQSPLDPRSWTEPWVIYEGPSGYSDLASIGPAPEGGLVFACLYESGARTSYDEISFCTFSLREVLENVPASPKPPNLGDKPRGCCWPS
As to the kind of experiment: Inhibition of human neuraminidase 4 using 4MU-NANA as substrate after 30 mins by fluorescence assay. In short, it runs like this: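 GST-fusion enzyme, assayed in 0.1 M sodium acetate pH 4.5. Inhibitor diluted 3-fold serially from 1 mM final, incubated 15 min at 37 °C with enzyme, then 4MU-NANA (50 μM final) 30 min at 37 °C. Stopped with 0.2 M sodium glycinate pH 10.7; fluorescence ex 365/em 445 nm. Four replicates; IC50 from nonlinear regression.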

`CC(=O)N[C@H]1[C@H]([C@H](O)[C@H](O)CO)OC(C(=O)O)=C[C@@H]1O` [NEU5AC2EN] gave a pIC50 of 4.89.
